The values below are quoted from earlier work in PubChem BioAssay AID1811 (Shanghai Institute of Organic Chemistry, 2009).

Molecules are shown by their SMILES. The list shows a part of the results. The source made the active and inactive calls. Unless stated, no cut-off for active and inactive is given here.

This series concerns 3-phosphoinositide dependent protein kinase 1. The series is described as follows: PubChem AID 1811. Conditions: PDB complex binding affinities from literature.

With `CN(C)CCCn1cc(C2=C(c3c[nH]c4ccccc34)C(=O)NC2=O)c2ccccc21`, the compound was called active. Consider `Cn1cc(C2=C(c3cn(CCCN)c4ccccc34)C(=O)NC2=O)c2ccccc21`, for which the result was active.
